The entries are a selection whose mix differs from that of the whole data set. Inconclusive results are not listed. Calls of active or inactive are those of the source. The call rests on the fitted dose curve; in most records, active means well fitted inhibition curve with a large enough effect; inconclusive means small, poorly fitted or top-dose-only effect, or effect the other way; inactive means flat fitted curve, though single readings scatter.
Target: Fumarate hydratase, mitochondrial (Homo sapiens) (UniProt P07954)
Assay: Identification of activators of human fumarate hydratase by quantitative high-throughput screening; further: the screen sought activators but most active calls are inhibition curves; nearly all actives have a fitted effect of over 45% in size
Details: FH coupled MDH/diaphorase resazurin fluorescence, 15 min; activity change, negative = inhibition: at the top concentration
Description: Fumarate hydratase (FH) is a metabolic enzyme that is part of the Krebs-cycle, and reversibly catalyzes the hydration of fumarate to malate. Mutations of the FH gene have been associated with fumarate hydratase deficiency (FHD), hereditary leiomyomatosis, renal cell cancer (HLRCC), and other diseases. Currently there are no high-quality small molecule probes for studying human fumarate hydratase. To address this, we developed a quantitative high throughput screening (qHTS) FH assay and screened a total of 57,037 compounds in dose-response. While no inhibitors of FH were confirmed, a series of phenyl-pyrrolo-pyrimidine-diones (12 compounds) were identified as activators of human fumarate hydratase. […] The binding of two compounds from the series to human fumarate hydratase was confirmed by microscale thermophoresis. The low hit rate in this screening campaign confirmed that FH is a "tough target" to modulate, and the small molecule activators of human fumarate hydratase reported here may serve as a starting point for further optimization and development into cellular probes of human FH and potential drug candidates.
For primary high-throughput screen, 3 ul of FH solution (containing 13.33nM human fumarate hydratase, 13.33IU/ml malic dehydrogenase, 0.2mM NAD, 0.067mg/ml diaphorase and 0.067mM resazurin in the assay buffer (50 mM Tris pH 8.0, 5 mM MgCl2, 0.01% Brij 3) was dispensed into each well in a black solid bottom 1536-well assay plate (Greiner Bio-One) using a BioRAPTR FRD dispenser (Beckman Coulter, Brea, CA). A 1536-well pintool dispenser outfitted with 20 nl pins (Wako Automation, San Diego, CA) was used to transfer 20 nL of DMSO-solubilized compound (Cherrypick plates) to each 1536-well assay plate. Each compound was screened at five concentrations: 15 nM, 151 nM, 1.5 uM, 15.4 uM, 76.9 uM. Following compound transfer, plates were incubated in room temperature for 10 minutes. 1 uL of substrate solution containing fumaric acid (160 uM) was dispensed via BioRAPTR FRD to initiate the reaction. Plates were immediately transferred to a ViewLux microplate imager (PerkinElmer, Waltham, MA), and any resulting resorufin fluorescence was measured (exitation/emission, 525/598 nm) at 0 and 15 minutes. The exposure time is 1 second. Fluorescence from each well was normalized using enzyme-free and DMSO-treated control wells on each plate, and changes in fluorescence (delta RFU) were calculated using the difference in fluorescent signal for each well at 15 minutes versus 0 minutes.
On the % scale 0 is the no-effect control and ±100 the full control effect; potency means the concentration at half of the fitted maximal effect.

Chains of the proteins cited; added tags and fusions are not shown. Lines headed by an entry give the natural chain unless they say otherwise; changes in a name come on top.
UniProt P07954: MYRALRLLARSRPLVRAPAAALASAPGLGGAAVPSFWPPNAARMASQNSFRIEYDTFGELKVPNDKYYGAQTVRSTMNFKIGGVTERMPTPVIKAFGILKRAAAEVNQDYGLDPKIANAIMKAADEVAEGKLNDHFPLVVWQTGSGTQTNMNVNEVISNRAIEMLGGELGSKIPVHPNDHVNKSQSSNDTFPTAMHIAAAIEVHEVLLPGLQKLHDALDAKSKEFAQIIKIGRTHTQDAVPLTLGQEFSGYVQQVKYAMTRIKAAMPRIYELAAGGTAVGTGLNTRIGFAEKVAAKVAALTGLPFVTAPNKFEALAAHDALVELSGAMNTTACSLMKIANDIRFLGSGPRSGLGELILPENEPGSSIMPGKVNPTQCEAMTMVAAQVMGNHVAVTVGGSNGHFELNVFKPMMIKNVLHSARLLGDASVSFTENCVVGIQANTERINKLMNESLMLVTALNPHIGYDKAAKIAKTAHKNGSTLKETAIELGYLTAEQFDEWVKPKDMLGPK

Row | Compound | activity change, negative = inhibition | Potency
1 | CN(C(=O)Cc1ccc(Cl)c(Cl)c1)[C@@H]1CC[C@]2(CCCO2)C[C@H]1N1CCCC1 | inactive: -7.28% | –
2 | CCn1c(=O)n([C@@H]2CCN(CC3CCCCCCC3)C[C@@H]2CO)c2ccccc21 | inactive: -1.33% | –
3 | CCn1c(=O)n([C@@H]2CCN(CC3CCCCCCC3)C[C@H]2CO)c2ccccc21 | inactive: -10.4% [at 79.9 µM] | –
4 | NC(=O)Nc1ccc([As](=O)(O)O)cc1 | inactive: -2.31% | –
5 | CN(C(=O)Cc1ccccc1)[C@@H]1CC[C@]2(CCCO2)C[C@H]1N1CCCC1 | inactive: -9.5% | –
6 | CN(C(=O)Cc1ccc(Cl)c(Cl)c1)[C@H]1CC[C@@]2(CCCO2)C[C@@H]1N1CCCC1 | inactive: -6.25% | –
7 | CN(C)C1(c2ccccc2)CCC2(CC1)OCCc1c2[nH]c2ccc(F)cc12 (centres undefined) | inactive: 1.75% [at 79.9 µM] | –
8 | CN(C(=O)Cc1ccccc1)[C@H]1CC[C@@]2(CCCO2)C[C@@H]1N1CCCC1 | inactive: -2.32% | –
9 | Cc1cc([N+](=O)[O-])cc([N+](=O)[O-])c1O | inactive: 1.52% [at 79.9 µM] | –
10 | CN(C(=O)Cc1ccc(Cl)c(Cl)c1)[C@@H]1CCCC[C@@H]1N1CCCC1 | – | active: 25.1 µM
11 | CN(C(=O)Cc1ccc(Cl)c(Cl)c1)[C@H]1CCCC[C@H]1N1CCCC1 | inactive: -5.68% [at 79.9 µM] | –
12 | CCNC(C)Cc1ccc2c(c1)OCO2 (centres undefined) | inactive: 0.277% [at 79.9 µM] | –
13 | CN(C(=O)Cc1ccc(Cl)c(Cl)c1)[C@H]1CCCC[C@@H]1N1CCCC1 | – | inactive
14 | O=C(O[C@H]1CN2CCC1CC2)C1NCc2ccccc2[C@@H]1c1ccccc1 (some centres undefined) | inactive: 1.5% [at 79.9 µM] | –
